pIC50: −log10 of the molar value.

Chains of the proteins cited; added tags and fusions are not shown. Residues count along the entry.
UniProt P30405, 44-207 K175I limits assumed: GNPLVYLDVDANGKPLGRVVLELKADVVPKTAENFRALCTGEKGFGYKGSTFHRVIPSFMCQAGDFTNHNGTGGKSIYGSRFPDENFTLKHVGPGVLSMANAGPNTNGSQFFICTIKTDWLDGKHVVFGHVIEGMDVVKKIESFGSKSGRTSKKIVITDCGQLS
UniProt P10635, whole entry: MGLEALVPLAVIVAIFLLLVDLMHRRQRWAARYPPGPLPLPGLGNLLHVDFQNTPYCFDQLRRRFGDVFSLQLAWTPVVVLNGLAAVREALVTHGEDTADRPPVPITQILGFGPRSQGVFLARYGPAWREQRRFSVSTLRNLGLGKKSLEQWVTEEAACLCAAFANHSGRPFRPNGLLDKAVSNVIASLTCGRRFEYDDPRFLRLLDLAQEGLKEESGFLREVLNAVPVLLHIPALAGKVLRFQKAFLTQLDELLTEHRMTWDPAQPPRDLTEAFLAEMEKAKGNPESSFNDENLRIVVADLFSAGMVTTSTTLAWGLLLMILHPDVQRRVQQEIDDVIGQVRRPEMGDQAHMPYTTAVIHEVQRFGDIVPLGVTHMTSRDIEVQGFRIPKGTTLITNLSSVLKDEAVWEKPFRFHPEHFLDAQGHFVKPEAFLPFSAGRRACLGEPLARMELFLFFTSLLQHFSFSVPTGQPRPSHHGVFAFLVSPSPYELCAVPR
UniProt P11712, whole entry: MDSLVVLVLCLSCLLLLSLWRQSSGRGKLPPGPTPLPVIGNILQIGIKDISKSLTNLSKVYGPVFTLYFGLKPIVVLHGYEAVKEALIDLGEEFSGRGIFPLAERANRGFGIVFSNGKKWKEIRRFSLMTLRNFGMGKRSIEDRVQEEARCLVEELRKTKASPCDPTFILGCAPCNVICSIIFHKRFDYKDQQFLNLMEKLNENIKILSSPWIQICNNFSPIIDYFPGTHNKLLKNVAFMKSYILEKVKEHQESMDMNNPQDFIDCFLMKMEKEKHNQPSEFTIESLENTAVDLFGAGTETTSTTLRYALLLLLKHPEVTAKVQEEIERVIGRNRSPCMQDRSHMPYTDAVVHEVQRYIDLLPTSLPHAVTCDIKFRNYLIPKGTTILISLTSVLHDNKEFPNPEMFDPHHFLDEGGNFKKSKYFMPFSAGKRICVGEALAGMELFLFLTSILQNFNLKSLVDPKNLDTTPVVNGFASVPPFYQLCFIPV
UniProt P33261, whole entry: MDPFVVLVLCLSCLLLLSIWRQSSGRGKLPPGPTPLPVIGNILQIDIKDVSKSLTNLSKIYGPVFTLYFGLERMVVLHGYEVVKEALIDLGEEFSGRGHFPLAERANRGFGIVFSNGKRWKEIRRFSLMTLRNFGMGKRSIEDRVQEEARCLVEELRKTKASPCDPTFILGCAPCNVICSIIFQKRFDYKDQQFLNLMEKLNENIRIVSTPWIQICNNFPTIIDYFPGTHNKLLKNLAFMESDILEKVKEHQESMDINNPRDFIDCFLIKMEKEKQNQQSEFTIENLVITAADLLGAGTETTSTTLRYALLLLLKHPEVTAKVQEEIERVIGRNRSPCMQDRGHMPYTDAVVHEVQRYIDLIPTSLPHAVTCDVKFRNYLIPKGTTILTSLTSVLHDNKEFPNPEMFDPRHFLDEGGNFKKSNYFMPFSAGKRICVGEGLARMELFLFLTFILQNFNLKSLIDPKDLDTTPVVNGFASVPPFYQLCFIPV
UniProt P23284, 34-216 limits assumed: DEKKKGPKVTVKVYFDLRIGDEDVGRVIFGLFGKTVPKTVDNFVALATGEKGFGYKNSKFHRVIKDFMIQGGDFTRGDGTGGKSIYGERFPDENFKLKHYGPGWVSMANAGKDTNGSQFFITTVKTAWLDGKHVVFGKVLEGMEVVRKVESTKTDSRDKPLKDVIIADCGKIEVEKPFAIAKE
UniProt P20813, whole entry: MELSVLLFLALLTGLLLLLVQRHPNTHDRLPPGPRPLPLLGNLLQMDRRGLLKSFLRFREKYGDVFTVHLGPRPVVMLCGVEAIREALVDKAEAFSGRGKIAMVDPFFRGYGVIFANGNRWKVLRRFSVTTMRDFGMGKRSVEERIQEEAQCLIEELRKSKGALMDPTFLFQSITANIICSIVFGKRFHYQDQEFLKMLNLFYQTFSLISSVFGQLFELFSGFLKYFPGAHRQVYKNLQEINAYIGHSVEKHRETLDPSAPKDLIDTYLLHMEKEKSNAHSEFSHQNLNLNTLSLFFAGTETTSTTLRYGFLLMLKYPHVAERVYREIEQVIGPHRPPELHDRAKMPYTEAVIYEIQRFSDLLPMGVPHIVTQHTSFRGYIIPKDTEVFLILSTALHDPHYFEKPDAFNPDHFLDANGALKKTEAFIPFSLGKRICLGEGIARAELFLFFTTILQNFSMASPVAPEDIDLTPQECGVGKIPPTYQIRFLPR
UniProt P10632, whole entry: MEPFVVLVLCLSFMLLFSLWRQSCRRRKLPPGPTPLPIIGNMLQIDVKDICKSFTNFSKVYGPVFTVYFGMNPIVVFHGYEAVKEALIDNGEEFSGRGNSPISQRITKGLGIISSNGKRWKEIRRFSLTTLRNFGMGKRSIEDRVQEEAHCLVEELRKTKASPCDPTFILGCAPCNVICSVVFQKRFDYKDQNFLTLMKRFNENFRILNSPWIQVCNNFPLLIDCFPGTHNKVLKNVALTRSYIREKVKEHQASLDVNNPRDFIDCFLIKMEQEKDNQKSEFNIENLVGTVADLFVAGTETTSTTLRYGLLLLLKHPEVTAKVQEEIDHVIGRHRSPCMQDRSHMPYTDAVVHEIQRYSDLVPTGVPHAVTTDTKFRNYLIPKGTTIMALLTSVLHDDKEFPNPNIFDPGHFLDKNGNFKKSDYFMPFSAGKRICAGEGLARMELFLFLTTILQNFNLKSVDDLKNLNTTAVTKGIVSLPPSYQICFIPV
UniProt P08684, whole entry: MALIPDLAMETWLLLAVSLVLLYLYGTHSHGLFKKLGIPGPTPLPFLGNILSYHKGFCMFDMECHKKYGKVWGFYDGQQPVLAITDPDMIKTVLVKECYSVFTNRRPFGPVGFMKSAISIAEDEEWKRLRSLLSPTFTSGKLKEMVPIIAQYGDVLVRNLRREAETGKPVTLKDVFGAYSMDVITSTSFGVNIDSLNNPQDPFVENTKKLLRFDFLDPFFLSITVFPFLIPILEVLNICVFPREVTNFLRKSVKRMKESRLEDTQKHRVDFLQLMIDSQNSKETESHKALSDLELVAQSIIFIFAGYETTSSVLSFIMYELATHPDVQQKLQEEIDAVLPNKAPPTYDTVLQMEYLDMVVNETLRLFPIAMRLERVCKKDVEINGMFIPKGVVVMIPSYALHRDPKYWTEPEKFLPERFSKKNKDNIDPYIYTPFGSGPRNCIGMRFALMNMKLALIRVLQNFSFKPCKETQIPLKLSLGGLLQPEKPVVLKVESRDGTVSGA
UniProt P08684, 2-503 limits assumed: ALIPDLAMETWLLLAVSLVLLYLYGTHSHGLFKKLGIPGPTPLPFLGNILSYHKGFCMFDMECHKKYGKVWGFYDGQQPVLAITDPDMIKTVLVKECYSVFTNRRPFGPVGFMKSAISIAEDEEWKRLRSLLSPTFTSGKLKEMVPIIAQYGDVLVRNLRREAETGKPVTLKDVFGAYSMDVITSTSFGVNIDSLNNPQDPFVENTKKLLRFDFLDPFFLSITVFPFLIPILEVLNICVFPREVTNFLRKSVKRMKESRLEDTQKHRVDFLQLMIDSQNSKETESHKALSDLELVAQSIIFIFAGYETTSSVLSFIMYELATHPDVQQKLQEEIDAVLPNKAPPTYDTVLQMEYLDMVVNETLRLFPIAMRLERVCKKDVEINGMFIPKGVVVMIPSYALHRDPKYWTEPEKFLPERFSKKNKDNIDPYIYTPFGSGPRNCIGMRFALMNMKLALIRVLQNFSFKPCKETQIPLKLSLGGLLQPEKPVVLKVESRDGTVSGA
UniProt P05177, whole entry: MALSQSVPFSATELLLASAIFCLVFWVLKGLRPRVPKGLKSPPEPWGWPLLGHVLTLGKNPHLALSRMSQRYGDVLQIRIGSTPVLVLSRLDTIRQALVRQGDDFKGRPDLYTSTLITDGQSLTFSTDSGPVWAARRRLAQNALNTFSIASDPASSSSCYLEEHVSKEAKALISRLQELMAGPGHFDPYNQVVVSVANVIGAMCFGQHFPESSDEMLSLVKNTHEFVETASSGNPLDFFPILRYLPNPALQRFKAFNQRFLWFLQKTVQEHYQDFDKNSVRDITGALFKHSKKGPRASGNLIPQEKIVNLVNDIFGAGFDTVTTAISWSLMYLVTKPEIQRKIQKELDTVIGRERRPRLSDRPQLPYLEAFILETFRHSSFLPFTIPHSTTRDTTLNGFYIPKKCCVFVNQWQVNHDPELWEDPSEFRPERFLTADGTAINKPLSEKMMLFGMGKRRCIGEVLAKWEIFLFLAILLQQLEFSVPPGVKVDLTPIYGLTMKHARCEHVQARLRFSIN

The target of data set [1] is CypD (Homo sapiens, UniProt P30405, K175I). The data set can be described thus: PPIase enzyme assay (chymotrypsin-coupled), CypD.
Data set [2] has as its target T1, CYP2D6 (Homo sapiens, UniProt P10635). The data set can be described thus: Cytochrome P450 enzyme inhibition assay, CYP2D6. As to conditions: human hepatic microsomal fractions, up to 25 μM.
Data set [3] has as its system Caco-2 cells. Nature of the data set: Caco-2 cell permeability. As to conditions: Caco-2 monolayers, 10 μM.
In data set [4] the test system is MRC5 cells. The data set can be described thus: Cellular toxicity in MRC5 cells. Type of data set: cell-based. Conditions: read-out: MRC5 cells CC50.
Data set [5] can be described thus: LogD determination by reverse-phase HPLC. As to conditions: octanol/water, pH 7.4.
The target of data set [6] is T2, CYP2C9 (Homo sapiens, UniProt P11712). The data set can be described thus: Metabolism by recombinant human cytochrome P450, CYP2C9. Conditions: recombinant enzyme.
The nature of data set [7]: Cell culture medium binding, equilibrium dialysis. As to conditions: 2 μM, 37 °C, 3 h dialysis. In general terms: In equilibrium dialysis free small molecules cross a membrane that holds back macromolecules.
The target of data set [8] is T3, CYP2C19 (Homo sapiens, UniProt P33261). Nature of the data set: Cytochrome P450 enzyme inhibition assay, CYP2C19. As to conditions: human hepatic microsomal fractions, up to 25 μM.
For data set [9], the target named is CypB (Homo sapiens, UniProt P23284). Conditions: read-out: CypB IC50; PPIase enzyme assay, 20 °C, mean±s.d.
The target in data set [10] is T4, CYP2B6 (Homo sapiens, UniProt P20813). The data set can be described thus: Cytochrome P450 enzyme inhibition assay, CYP2B6. As to conditions: human hepatic microsomal fractions, up to 25 μM.
For data set [11], the target named is T5, CYP2C8 (Homo sapiens, UniProt P10632). The data set can be described thus: Cytochrome P450 enzyme inhibition assay, CYP2C8. Conditions: human hepatic microsomal fractions, up to 25 μM.
The target of data set [12] is T6, CYP3A4 (Homo sapiens, UniProt P08684). Nature of the data set: Metabolism by recombinant human cytochrome P450, CYP3A4. Type of data set: in vitro ADME. As to conditions: recombinant enzyme. Here is the method: (§1) […] of compound was incubated with individual bacterially expressed recombinant human cytochromes P450 co-expressed with human NADPH cytochrome P450 reductase. The reduction in substrate concentration was monitored over 45 min using specific LC-MS/MS assays and the in vitro half-life calculated in the same manner as that described for hepatic microsomal stability. Enzyme-selective positive control substrates were tested in parallel.

The target in data set [13] is T6, CYP3A4. Nature of the data set: Cytochrome P450 enzyme inhibition assay, CYP3A4. Conditions: human hepatic microsomal fractions, up to 25 μM.
The subject of data set [14] is Huh7 cells. Nature of the data set: Cellular toxicity in Huh7 replicon cells. The format is cell-based. As to conditions: read-out: HCV genotype 1b replicon CC50. In general terms: Replicon systems follow genome replication, usually without infectious particles.
Data set [15] addresses T1, CYP2D6. The data set can be described thus: Metabolism by recombinant human cytochrome P450, CYP2D6. As to conditions: recombinant enzyme.
The test system of data set [16] is MT4 cells. The data set can be described thus: Cytotoxicity in uninfected MT4 cells. Conditions: read-out: MT4 cells CC50.
Data set [17] is described as follows: Chemical stability, 24 h. Conditions: 37 °C, remaining. The format is physicochemical.
Data set [18] deals with T5, CYP2C8. Nature of the data set: Metabolism by recombinant human cytochrome P450, CYP2C8. Conditions: recombinant enzyme.
Data set [19] can be described thus: Human plasma protein binding, equilibrium dialysis. Conditions: 2 μM, 37 °C, 3 h dialysis.
Data set [20] addresses T7, CYP1A2 (Homo sapiens, UniProt P05177). Nature of the data set: Cytochrome P450 enzyme inhibition assay, CYP1A2. Conditions: human hepatic microsomal fractions, up to 25 μM.
Data set [21] in a line: Kinetic solubility. As to conditions: target concentration 100 μM, 24 h; for Solubility HCl (pH 1.0): 0.1 N HCl pH 1.0.
The nature of data set [22]: Stability with hepatic microsomal fractions. Conditions: human microsomes 0.5 mg protein/ml, NADPH, 3 μM.
The target of data set [23] is T7, CYP1A2. The data set can be described thus: Metabolism by recombinant human cytochrome P450, CYP1A2. Type of data set: in vitro ADME. Conditions: recombinant enzyme. Here is the method:
as §1

Data set [24] deals with T2, CYP2C9. The data set can be described thus: Cytochrome P450 enzyme inhibition assay, CYP2C9. Conditions: human hepatic microsomal fractions, up to 25 μM.
Data set [25] has as its target T3, CYP2C19. Nature of the data set: Metabolism by recombinant human cytochrome P450, CYP2C19. The format is in vitro ADME. Conditions: recombinant enzyme. Here is the method:
as §1

For data set [26], the target named is T4, CYP2B6. Nature of the data set: Metabolism by recombinant human cytochrome P450, CYP2B6. Type of data set: in vitro ADME. Conditions: recombinant enzyme. Here is the method:
as §1

In the case of `CC(=O)c1cccc(N)c1`, the “% CypD inhibition (%I) at 1 mM” value in data set [1] was 17%.
For orientation: pIC50 means the IC50 on a negative log10 scale, so that one unit is a factor of ten. The term CC50 denotes the concentration giving 50% cytotoxicity. A word on the LogD: it is the decadic logarithm of the distribution of all forms, ionised or not, between an organic phase and buffer at a given pH. The low end stands for a more hydrophilic compound, the high end for a more lipophilic compound. On to `CSc1ccccc1C1CCCN1C(=O)C(CC(C)C)NC(=O)NCc1ccc(N)cc1` (centres unmarked), for which the “Inhibition of cytochrome P450 activity, IC50 CYD2D6” value in [2] is on record as “Neither compound 29 nor compound 30 significantly inhibited”. For the same compound, the negative logarithm of the IC50 (pIC50) in data set [2] (read-out: Inhibition of cytochrome P450 activity, IC50 CYD2D6) is under 4.60; in data set [8] (read-out: Inhibition of cytochrome P450 activity, IC50 CYP2C19) it was under 4.60; in data set [9], 6.30; in data set [10] (read-out: Inhibition of cytochrome P450 activity, IC50 CYP2B6), under 4.60; in [11] (read-out: Inhibition of cytochrome P450 activity, IC50 CYP2C8), 5.01; in data set [13] (read-out: Inhibition of cytochrome P450 activity, IC50 CYP3A4) it was 6.01. The negative-log IC50 (pIC50) was under 4.60 in [20] (read-out: Inhibition of cytochrome P450 activity, IC50 CYP1A2) and under 4.60 in data set [24] (read-out: Inhibition of cytochrome P450 activity, IC50 CYP2C9). Also, the results for the “Apparent permeability Forward” value in data set [3] and in data set [3] (listed as compound 29) were 140 nm/s and “high”, respectively. Also, the “Apparent permeability Reverse” value in data set [3] (reverse) is 456 nm/s. Besides, the CC50 in [4] is over 100 µM; in [14], over 100 µM; in data set [16], 40 µM. The compound further returned a pH-dependent lipophilicity (LogD) in data set [5] of 2.5. Further, the “Rate of metabolism by human cytochrome P450 CYP2C9” value in data set [6] was 1.36 pmol/pmol P450/min. The “Cell culture medium (CCM) binding Unbound” value in data set [7] worked out at 76.8%. For the same compound, in data set [8], the “Inhibition of cytochrome P450 activity, IC50 CYP2C19” value is listed as “Neither compound 29 nor compound 30 significantly inhibited”. Besides, the “Inhibition of cytochrome P450 activity, IC50 CYP2B6” value in data set [10] is listed as “Neither compound 29 nor compound 30 significantly inhibited”. The “Inhibition of cytochrome P450 activity, IC50 CYP2C8” value in data set [11] is listed as “moderate inhibitors”. Also, the figures for the “Rate of metabolism by human cytochrome P450 CYP3A4” value in [12] and in data set [12] (listed as compound 29) were under 0.47 pmol/pmol P450/min and “but not compound 29”, respectively. Moreover, in data set [13], the “Inhibition of cytochrome P450 activity, IC50 CYP3A4” value was “potent inhibitors”. Further, the “Rate of metabolism by human cytochrome P450 CYD2D6” value in [15] was 1.43 pmol/pmol P450/min. Also, the “24-hour stability HCl (pH 1.0)” value in data set [17] turned out to be 98%. Besides, the “24-hour stability PBS (pH 7.4)” value in data set [17] is 100%; in [17] (listed as compound 29), “not degraded”. Moreover, the “Rate of metabolism by human cytochrome P450 CYP2C8” value in [18] was 0.43 pmol/pmol P450/min. The “Human plasma binding Bound” value in data set [19] was determined as 85.0%. Moreover, the “Human plasma binding Unbound” value in [19] is listed as 15.0%. In [20], the “Inhibition of cytochrome P450 activity, IC50 CYP1A2” value was “Neither compound 29 nor compound 30 significantly inhibited”. The Solubility HCl (pH 1.0) in [21] was over 100 µM; in data set [21] (listed as compound 29) it was “very soluble”. For the same compound, the Solubility PBS (pH 7.4) in data set [21] is over 100 µM; in data set [21] (listed as compound 29) it was “very soluble”. Moreover, the “Hepatic microsomal stability, T1/2” value in [22] worked out at 21.6 min. Moreover, the “Rate of metabolism by human cytochrome P450 CYP1A2” value in data set [23] is listed as under 0.12 pmol/pmol P450/min; in data set [23] (listed as compound 29), “Neither compound 29 nor compound 30 was metabolized”. Also, the “Inhibition of cytochrome P450 activity, IC50 CYP2C9” value in data set [24] is listed as “Neither compound 29 nor compound 30 significantly inhibited”. The “Rate of metabolism by human cytochrome P450 CYP2C19” value is recorded as 9.96 pmol/pmol P450/min in [25] and “metabolized at the highest rate” in [25] (listed as compound 29). Further, the “Rate of metabolism by human cytochrome P450 CYP2B6” value in [26] is under 0.12 pmol/pmol P450/min; in data set [26] (listed as compound 29), “Neither compound 29 nor compound 30 was metabolized”.
`O=C(NC(=O)c1c(Cl)cccc1Cl)NC1c2ccccc2-c2ccccc21`: the negative logarithm of the IC50 (pIC50) in [9] was under 4.00.
Regarding `O=C(NC(=O)c1c(F)cccc1Cl)NC1c2ccccc2-c2ccccc21` [TMN-355, reference compound], in data set [9], the negative logarithm of the IC50 (pIC50) was under 4.00.

(Values after publication PMC5036131, “Fragment-based discovery of a new family of non-peptidic small-molecule cyclophilin inhibitors with potent antiviral activities” (Nature Communications, 2016).)
